# Results from patent US20110165266A1 (priority 2008, published 2011).
# Test system: VSV-G pseudotyped MLV vector (pLEGFP)
# Test: Real-time quantitative PCR of viral DNA (reverse transcription products, integrated DNA) in CHO-K1 cells
# Type: cell-based, murine leukemia virus (MLV)
# Conditions: CHO-K1 cells passaged in 100 mM chlorate; 18 days post infection; FIG. 5D
structure (smiles),measurement,value
[O-][Cl+2]([O-])O [chlorate],"integrated viral DNA, fold less than untreated CHO-K1 cells",2.6 fold
